Amino acid sequences for entries named in this document (tags omitted). A change or cut given only in a name is not applied to a line headed by its entry.
UniProt P10683: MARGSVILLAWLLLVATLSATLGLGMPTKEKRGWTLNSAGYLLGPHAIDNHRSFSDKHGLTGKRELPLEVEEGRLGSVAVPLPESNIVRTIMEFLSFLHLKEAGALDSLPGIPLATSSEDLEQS

In US20010009766A1 (published 2001):

T1: rat GALR3 receptor (rat)
T1 chain: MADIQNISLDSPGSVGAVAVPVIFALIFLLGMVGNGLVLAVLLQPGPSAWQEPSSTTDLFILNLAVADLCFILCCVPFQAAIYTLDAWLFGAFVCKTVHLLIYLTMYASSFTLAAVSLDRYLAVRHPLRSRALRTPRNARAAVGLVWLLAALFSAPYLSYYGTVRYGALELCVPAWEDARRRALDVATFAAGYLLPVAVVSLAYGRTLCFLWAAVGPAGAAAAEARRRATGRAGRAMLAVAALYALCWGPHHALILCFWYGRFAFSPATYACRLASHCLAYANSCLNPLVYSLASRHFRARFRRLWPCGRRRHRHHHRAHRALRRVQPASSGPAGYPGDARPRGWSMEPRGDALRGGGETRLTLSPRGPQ


How the values were obtained:
[1] = biological target: T1, rat GALR3 receptor; experiment: displacement of porcine 125I-galanin, membranes of stable cell line 293-rGalR3-105
[2] = biological target: T1, rat GALR3 receptor; experiment: displacement of porcine 125I-galanin, rat GalR3 transiently expressed in COS-7 membranes

Ki [1] | Ki [2] | Molecule
7.6 nM | – | galantide (peptide)
5.7 nM | 4.3 nM | GWTLNSAGYLLGPHAIDNHRSFSDKHGLT (peptide, UniProt P10683 33-61, looked up, mature) [rat galanin]
